This experiment deals with T1, Vesicular acetylcholine transporter (Homo sapiens, UniProt Q16572).
T1 sequence (Q16572 whole entry): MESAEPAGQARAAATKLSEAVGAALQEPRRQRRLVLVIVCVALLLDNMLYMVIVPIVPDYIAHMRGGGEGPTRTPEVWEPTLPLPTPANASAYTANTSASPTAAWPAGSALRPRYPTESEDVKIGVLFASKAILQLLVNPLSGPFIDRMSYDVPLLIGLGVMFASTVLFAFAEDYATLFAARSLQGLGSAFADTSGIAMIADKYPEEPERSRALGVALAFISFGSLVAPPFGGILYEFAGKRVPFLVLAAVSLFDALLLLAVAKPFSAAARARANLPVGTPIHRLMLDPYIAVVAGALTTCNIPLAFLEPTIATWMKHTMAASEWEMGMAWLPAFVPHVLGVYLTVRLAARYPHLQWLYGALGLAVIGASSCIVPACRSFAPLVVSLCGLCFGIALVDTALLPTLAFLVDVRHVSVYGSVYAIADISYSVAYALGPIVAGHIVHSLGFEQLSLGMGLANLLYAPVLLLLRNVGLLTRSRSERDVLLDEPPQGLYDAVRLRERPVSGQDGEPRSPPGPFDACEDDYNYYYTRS
In words: Displacement of [3H]-vesamicol from human VAChT after 24 hrs by liquid scintillation spectrometry analysis. For orientation: Loss of bound radioactivity is the signal in a displacement assay; it reports binding, not function.

With `O=C(c1ccc(F)cc1)c1cccc2c1C[C@@H](N1CCC(c3ccccc3)CC1)[C@H](O)C2`, the affinity corresponds to a Ki of 2.7 nM.

As a reminder, the Ki is a dissociation constant, usually derived from enzyme kinetics or from competition with a known ligand. Higher therefore signals a looser hold on the target.

(Values after ChEMBL document CHEMBL3596119, “Synthesis and biological characterization of a promising F-18 PET tracer for vesicular acetylcholine transporter” (Bioorg Med Chem, 2015).)
